Literature values, collected in US4900748A (priority 1988, dated 1990).

Test system: ChE
Details: Brossi et al. 1986; cited from earlier work

## (+)-physostigmine
  ChE inhibitory activity: negligible ChE inhibitory activity
